# scFv variants of Ab-14 (light chain) against a SARS-CoV-2 spike peptide

The target is the same throughout: PDVDLGDISGINAS, from the HR2 region of SARS-CoV-2 spike.

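Phage display of a naive human antibody library on the peptide gave the parent. The library (AAYL50) carries one to three amino acid substitutions per variant, with no insertions or deletions. Affinity was read by AlphaSeq, a pooled yeast mating assay with surface-displayed partners. After mating in shaken culture at 30 °C for 16 h, diploids were selected and their barcode pairs sequenced. Scores were corrected for input abundance and mapped to Kd with protein pairs of known affinity run in the same pool. Mating was done three times.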

Each scFv is VH, the linker GGGGSGGGGSGGGGS, VL, as in the parent Ab-14, and differs from it in the CDRs of the light chain only.
VH: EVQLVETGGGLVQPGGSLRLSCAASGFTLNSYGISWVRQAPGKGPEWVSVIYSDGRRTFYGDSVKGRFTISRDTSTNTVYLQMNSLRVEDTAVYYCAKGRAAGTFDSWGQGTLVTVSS
VL: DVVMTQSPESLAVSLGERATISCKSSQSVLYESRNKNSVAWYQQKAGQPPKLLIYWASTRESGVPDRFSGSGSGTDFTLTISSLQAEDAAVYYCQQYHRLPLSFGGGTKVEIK

Positions count from residue 1 of the parent VL; S26E puts E in place of S.
This list gathers variants with a substitution at V29 (VL, numbered from residue 1).
Each Kd is an estimate from the mating assay, the geometric mean of the replicates in which the pair was seen; lower is stronger.
A pair that was not seen in any replicate is written "no signal"; this usually means weak binding, but a binder can also be missed.
Entries are sorted by rising average, undetected variants last.

changes	Kd	detected	control signals
S26E+V29I+S38N	1.2 nM	3 of 3	3 of 9
V29D+L30Y+Y31M	2.9 nM	3 of 3	1 of 9
V29G+Y31I+S62T	3.4 nM	3 of 3	0 of 9
S25G+V29M+Y31M	3.9 nM	3 of 3	5 of 9
V29Y+E32C+W56Q	4.0 nM	3 of 3	0 of 9
S26E+V29Q+S103M	6.2 nM	3 of 3	3 of 9
V29T+H98Y	7.4 nM	3 of 3	1 of 9
S26F+V29G+Y31V	9.3 nM	3 of 3	1 of 9
S26M+V29W	10 nM	3 of 3	2 of 9
S26T+V29A+E61M	10 nM	3 of 3	2 of 9
V29C+W56G+R60P	10 nM	3 of 3	1 of 9
V29R+R34L+N37Y	11 nM	3 of 3	0 of 9
S28V+V29P+L102P	11 nM	3 of 3	9 of 9
S25K+V29G+K36D	12 nM	3 of 3	1 of 9
S25E+V29H	17 nM	3 of 3	1 of 9
Q27R+V29F+L30C	20 nM	3 of 3	0 of 9
V29L+W56C+Q95W	37 nM	3 of 3	1 of 9
V29F+L30A+S38H	40 nM	3 of 3	5 of 9
V29N+T59N+S62I	41 nM	3 of 3	6 of 9
S28M+V29E+T59Y	49 nM	3 of 3	1 of 9
V29G+R60L	60 nM	1 of 3	0 of 9
V29G+E32Y+Q96C	99 nM	2 of 3	2 of 9
V29P+L100N	120 nM	3 of 3	2 of 9
V29K+N37M+P101H	180 nM	3 of 3	0 of 9
V29C+S33R	290 nM	3 of 3	0 of 9
V29F+H98E	300 nM	1 of 3	1 of 9
Q27K+V29E+A57L	380 nM	3 of 3	2 of 9
S25W+V29K+N37T	2.2 µM	3 of 3	2 of 9
V29K+N35Y+S58G	2.8 µM	1 of 3	1 of 9
V29C+T59W	3.4 µM	2 of 3	3 of 9
V29M+A40K+R60P	4.3 µM	1 of 3	3 of 9
V29D+A57E+L102I	4.8 µM	3 of 3	4 of 9
V29W+Q95A+S103V	5.6 µM	3 of 3	1 of 9
V29P+L100F+L102A	8.8 µM	2 of 3	3 of 9
V29C+E32K+W56S	20 µM	1 of 3	1 of 9
V29M+R60T+L100R	28 µM	2 of 3	1 of 9
V29P+N35D+V39D	35 µM	1 of 3	4 of 9
S26P+V29I+E32T	54 µM	1 of 3	0 of 9
S28V+V29M+A40E	73 µM	3 of 3	5 of 9
S25T+V29C+N35Y	no signal	0 of 3	0 of 9
V29Q+N37F+A57H	no signal	0 of 3	1 of 9
V29I+N35P+N37P	no signal	0 of 3	0 of 9
Q27C+V29C+P101C	no signal	0 of 3	1 of 9
S28T+V29D+P101N	no signal	0 of 3	0 of 9
K24D+V29P+R34L	no signal	0 of 3	0 of 9
V29S+A40T+Q96M	no signal	0 of 3	0 of 9
V29N+S58L+R60F	no signal	0 of 3	1 of 9
V29S+L102G	no signal	0 of 3	2 of 9
V29P+Y97E+S103M	no signal	0 of 3	1 of 9
K24N+S26I+V29G	no signal	0 of 3	0 of 9
V29S+L30I+Q95F	no signal	0 of 3	1 of 9
V29I+R99M+S103E	no signal	0 of 3	0 of 9

Again, the first 3 entries without any signal:

{"changes": "S25T+V29C+N35Y", "Kd": "no signal", "detected": "0 of 3", "control signals": "0 of 9"}
{"changes": "V29Q+N37F+A57H", "Kd": "no signal", "detected": "0 of 3", "control signals": "1 of 9"}
{"changes": "V29I+N35P+N37P", "Kd": "no signal", "detected": "0 of 3", "control signals": "0 of 9"}

Empty control strains, which show no peptide, gave a signal in 18% of pairings with library AAYL50; the median was 15 µM and 95% of these signals were weaker than 970 nM. No background was subtracted. For each scFv, signals with the empty controls are counted beside the result.
For reference, the parent read 4.4 nM as the reference entry and 48 nM as a member of this library.

The measurements come from Engelhart et al. 2022 (doi:10.1038/s41597-022-01779-4) through the FLAb antibody collection.